Values quoted from earlier work in US20050267009A1, “Method of Treatment of Acute and Persistent Pain” (priority 2004, published 2005).

Tested on: chronic neuropathic pain
Conditions: rat CCI, intrathecal

recombinant human IL-2: recombinant human IL-2
antinociceptive effect (paw-withdrawal latency): dose-dependent antinociceptive effect | duration of antinociceptive effect: 10 to 25 min
